## Yeast mating assay B: variants of the scFv Ab-14

Target: peptide PDVDLGDISGINAS, taken from heptad repeat 2 (HR2) of SARS-CoV-2 spike.

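Phage display of a naive human antibody library on the peptide gave the parent. The variants were designed computationally from a first round of random CDR variants and then made and measured. Their group label is 14H_GP_Gibbs (GP: Gaussian process model; Gibbs: Gibbs sampling; a sequence that several methods proposed may carry one label only). In AlphaSeq, yeast of one mating type display the scFv and yeast of the other type display the target. The frequency of each diploid, read from paired DNA barcodes, reflects how well the two displayed proteins bind. Read counts were normalised to the haploid input and turned into Kd by a linear fit to BCL2-family pairs of known affinity, for each replicate. There are six technical replicates.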

The variants keep the light chain, the linker and the frameworks of Ab-14 (scFv order VH, the linker GGGGSGGGGSGGGGS, VL).
VH: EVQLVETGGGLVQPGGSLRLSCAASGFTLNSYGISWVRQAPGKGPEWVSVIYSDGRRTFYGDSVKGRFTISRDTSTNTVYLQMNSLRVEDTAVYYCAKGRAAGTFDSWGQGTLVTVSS
VL: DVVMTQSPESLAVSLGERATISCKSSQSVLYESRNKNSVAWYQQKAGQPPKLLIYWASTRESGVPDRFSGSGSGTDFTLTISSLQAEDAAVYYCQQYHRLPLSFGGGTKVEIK

The parent's heavy chain CDRs are GFTLNSYGIS, VIYSDGRRTFYGDSVK, GRAAGTFDS; each variant's own CDRs replace them letter for letter. The read-out is the apparent dissociation constant on a log10 scale (nM): the lower, the stronger. A pair that was not seen in that replicate is written "nd"; this usually means weak binding, but a binder can also be missed. A sequence measured in both rounds can read differently, since the two assays cover different ranges. Of ten entries with the parent sequence, four were seen in most replicates (averages 0.34 to 2.37), three in one and three in none, so single entries are noisy. The authors averaged sequences with at least three values out of six and counted those with two or fewer as poor binders. Empty control strains, which show no peptide, gave a signal in 1% of pairings with all heavy chain designs; the median was 2.08 and 95% of these signals were weaker than 0.84. No background was subtracted. For each scFv, signals with the empty controls are counted beside the result, with their mean in brackets.

{"CDR-H1": "GFTLNEYGIS", "CDR-H2": "VIYSDGWRTFYSDSVK", "CDR-H3": "GRTAGTFDT", "log10 Kd, replicates": "0.23 / 0.43 / 0.21 / 0.29 / 0.11 / 0.93", "empty controls": "1 of 18 (2.85)"}
{"CDR-H1": "GFDLNSYGIS", "CDR-H2": "VIYSDGWRTFYIDSVK", "CDR-H3": "GRTAGTFDS", "log10 Kd, replicates": "2.06 / 0.81 / 1.79 / 1.72 / nd / 1.80", "empty controls": "0 of 18"}
{"CDR-H1": "GFTLESYGIS", "CDR-H2": "VIYSDGRRTFYGDSVK", "CDR-H3": "GQTAGTFDT", "log10 Kd, replicates": "0.97 / 0.37 / -0.28 / -0.26 / -0.63 / -0.42", "empty controls": "0 of 18"}
{"CDR-H1": "GFELNMYGIS", "CDR-H2": "VIYSDGRRTFYTDSVK", "CDR-H3": "GQTAGTFDS", "log10 Kd, replicates": "0.80 / 0.21 / 0.57 / 0.20 / 0.98 / 0.86", "empty controls": "1 of 18 (1.91)"}
{"CDR-H1": "GFDLNSYGIS", "CDR-H2": "VIYSDGLRTFYDDSVK", "CDR-H3": "GKAAGTFDS", "log10 Kd, replicates": "0.66 / 0.25 / 0.45 / 0.71 / 0.25 / 0.16", "empty controls": "0 of 18"}
{"CDR-H1": "GFQLNSYGIS", "CDR-H2": "VIYSDGRRTFYVDSVK", "CDR-H3": "GRQAGTFDT", "log10 Kd, replicates": "nd / nd / nd / nd / nd / nd", "empty controls": "1 of 18 (2.23)"}
{"CDR-H1": "GFSLNDYGIS", "CDR-H2": "VIYSDGRRTFYHDSVK", "CDR-H3": "GRLAGTFDS", "log10 Kd, replicates": "0.55 / 0.17 / 0.26 / 0.60 / 0.45 / 0.61", "empty controls": "0 of 18"}
{"CDR-H1": "GFDLNSYGIS", "CDR-H2": "VIYSDGRRTFYADWVK", "CDR-H3": "GNAAGTFDN", "log10 Kd, replicates": "nd / nd / 0.88 / 1.93 / 0.12 / 1.95", "empty controls": "0 of 18"}
{"CDR-H1": "KFTLNSYGIS", "CDR-H2": "VIYSDGKRTFYKDSVK", "CDR-H3": "GRTAGTFDS", "log10 Kd, replicates": "nd / nd / nd / 2.15 / nd / 0.78", "empty controls": "0 of 18"}
{"CDR-H1": "GFWLNEYGIS", "CDR-H2": "VIYSDGRRTFYHDSVK", "CDR-H3": "GRAAGTFWS", "log10 Kd, replicates": "nd / nd / nd / nd / nd / nd", "empty controls": "0 of 18"}
{"CDR-H1": "GFDLNSYGIS", "CDR-H2": "VIYSDGRRTFYDDRVK", "CDR-H3": "GKAAGTFDS", "log10 Kd, replicates": "-0.02 / 1.99 / -0.23 / 0.60 / 1.74 / 1.25", "empty controls": "0 of 18"}
{"CDR-H1": "GFNLNSYGIS", "CDR-H2": "VIYSDGRRTFYVDPVK", "CDR-H3": "GNAAGTFDS", "log10 Kd, replicates": "1.65 / 3.35 / 3.83 / nd / nd / 3.10", "empty controls": "0 of 18"}
{"CDR-H1": "GFSLNMYGIS", "CDR-H2": "VIYSDGRRTFYIDSVK", "CDR-H3": "GREAGTFDS", "log10 Kd, replicates": "0.69 / 0.88 / 1.85 / 0.41 / 0.64 / 0.93", "empty controls": "0 of 18"}
{"CDR-H1": "GFYLNEYGIS", "CDR-H2": "VIYSDGRRTFYGDQVK", "CDR-H3": "GRTAGTFDS", "log10 Kd, replicates": "nd / 1.35 / 1.27 / 0.69 / 0.75 / 0.85", "empty controls": "0 of 18"}
{"CDR-H1": "GFTLDSYGIS", "CDR-H2": "VIYSDGRRTFYADDVK", "CDR-H3": "GRAAGTFDK", "log10 Kd, replicates": "1.39 / 0.87 / 1.20 / 1.27 / 1.35 / 1.20", "empty controls": "1 of 18 (2.19)"}
{"CDR-H1": "GFVLNSYGIS", "CDR-H2": "VIYSDGRRTFYADNVK", "CDR-H3": "GQTAGTFDS", "log10 Kd, replicates": "nd / 0.27 / 1.76 / 1.83 / 0.30 / 2.31", "empty controls": "0 of 18"}
{"CDR-H1": "GFTLNSYGIS", "CDR-H2": "VIYSDGKRTFYGDDVK", "CDR-H3": "GRNAGTFDT", "log10 Kd, replicates": "0.92 / 0.53 / 1.05 / 0.90 / 0.84 / 1.34", "empty controls": "0 of 18"}
{"CDR-H1": "GFVLNSYGIS", "CDR-H2": "VIYADGRRTFYGDSVK", "CDR-H3": "GQAAGTFDT", "log10 Kd, replicates": "-0.08 / 0.20 / 0.04 / -0.09 / 0.29 / 0.39", "empty controls": "0 of 18"}
{"CDR-H1": "GFSLNSYGIS", "CDR-H2": "VIYSDGRRTFYGDRVK", "CDR-H3": "GVEAGTFDS", "log10 Kd, replicates": "0.47 / 0.23 / -0.24 / 0.03 / 0.51 / 0.01", "empty controls": "0 of 18"}
{"CDR-H1": "GFDLNSYGIS", "CDR-H2": "VIYSDGRRTFYGDGVK", "CDR-H3": "GRIAGTFDS", "log10 Kd, replicates": "1.61 / 1.12 / 0.83 / 1.34 / 0.70 / 1.21", "empty controls": "1 of 18 (2.67)"}
{"CDR-H1": "GFDLNSYGIS", "CDR-H2": "VIYSDGRRTFYGDKVK", "CDR-H3": "GREAGTFDT", "log10 Kd, replicates": "nd / nd / nd / nd / nd / nd", "empty controls": "0 of 18"}
{"CDR-H1": "GFGLNEYGIS", "CDR-H2": "VIYSDGRRTFYGDNVK", "CDR-H3": "GRTAGTFDS", "log10 Kd, replicates": "-0.09 / -0.20 / -0.73 / -0.18 / 0.08 / -0.22", "empty controls": "0 of 18"}
{"CDR-H1": "GFELNSYGIS", "CDR-H2": "VIYSDGRRTFYGDSVK", "CDR-H3": "GDEAGTFDT", "log10 Kd, replicates": "-0.30 / -0.31 / -0.10 / 0.01 / -0.22 / -0.23", "empty controls": "0 of 18"}
{"CDR-H1": "GFDLNEYGIS", "CDR-H2": "VIYSDGRRTFYDDSVK", "CDR-H3": "GKAAGTFDS", "log10 Kd, replicates": "-0.02 / -0.27 / -0.24 / -0.41 / -0.48 / -0.04", "empty controls": "0 of 18"}
{"CDR-H1": "GFSLNEYGIS", "CDR-H2": "VIYSDGRRTFYGEHVK", "CDR-H3": "GRTAGTFDS", "log10 Kd, replicates": "-0.40 / 0.06 / -0.43 / 0.15 / -0.15 / -0.38", "empty controls": "0 of 18"}
{"CDR-H1": "GFELNSYGIS", "CDR-H2": "VIYSDGQRTFYADSVK", "CDR-H3": "GKTAGTFDS", "log10 Kd, replicates": "0.00 / 0.41 / 0.06 / 0.48 / -0.20 / 0.09", "empty controls": "0 of 18"}
{"CDR-H1": "KFALNEYGIS", "CDR-H2": "VIYSDGRRTFYGDSVK", "CDR-H3": "GRTAGTFDS", "log10 Kd, replicates": "0.01 / 0.44 / 0.40 / 0.40 / 0.38 / 0.73", "empty controls": "0 of 18"}
{"CDR-H1": "GFELNMYGIS", "CDR-H2": "VIYSDGRRTMYGDSVK", "CDR-H3": "GRTAGTFDS", "log10 Kd, replicates": "0.48 / 0.64 / 0.76 / 1.62 / 1.09 / 0.72", "empty controls": "0 of 18"}
{"CDR-H1": "GFDLNSYGIS", "CDR-H2": "VIYSDGRRTFYGDGVK", "CDR-H3": "GKAAGTFDV", "log10 Kd, replicates": "0.24 / -0.21 / 0.56 / 0.05 / 0.20 / 0.38", "empty controls": "0 of 18"}
{"CDR-H1": "GFNLNSYGIS", "CDR-H2": "VIYSDGRRTFYIDSVK", "CDR-H3": "GQTAGTFDK", "log10 Kd, replicates": "nd / 0.68 / 1.47 / 1.67 / 0.82 / nd", "empty controls": "0 of 18"}
{"CDR-H1": "GFQLNSYGIS", "CDR-H2": "VIYSDGRRTFYSDSVK", "CDR-H3": "GKQAGTFDS", "log10 Kd, replicates": "0.88 / 1.21 / 0.45 / 0.47 / 0.56 / 0.44", "empty controls": "0 of 18"}

The first 3 variants above that were never detected:

{"CDR-H1": "GFQLNSYGIS", "CDR-H2": "VIYSDGRRTFYVDSVK", "CDR-H3": "GRQAGTFDT", "log10 Kd, replicates": "nd / nd / nd / nd / nd / nd", "empty controls": "1 of 18 (2.23)"}
{"CDR-H1": "GFWLNEYGIS", "CDR-H2": "VIYSDGRRTFYHDSVK", "CDR-H3": "GRAAGTFWS", "log10 Kd, replicates": "nd / nd / nd / nd / nd / nd", "empty controls": "0 of 18"}
{"CDR-H1": "GFDLNSYGIS", "CDR-H2": "VIYSDGRRTFYGDKVK", "CDR-H3": "GREAGTFDT", "log10 Kd, replicates": "nd / nd / nd / nd / nd / nd", "empty controls": "0 of 18"}

From the AlphaSeq antibody data of Li et al. 2023 (doi:10.1038/s41467-023-39022-2), copy in the FLAb collection.